# Measurements from PMC8111326 (Journal of Molecular Endocrinology, 2021).
# Legend:
# [1] = system: endogenous M3-AChR in HEK293 cells; conditions: 30 μL injection at 150 μL/s into 210 μL cell suspension
# [2] = system: endogenous M3-AChR in HEK293 cells; conditions: HEK293 cell suspensions, ref Mountjoy et al. 2001, cited from earlier work
# [3] = system: endogenous M3-AChR in HEK293 cells
smiles,measurement,setting,value
"C[N+](C)(C)CCOC(N)=O [carbachol, carbamylcholine chloride]",carbachol M3-AChR-induced [Ca2+]i (in words),[1],robust carbachol-induced increase for [Ca^2+]i
same,carbachol-induced M3-AChR mobilisation of [Ca2+]i (in words),[2]; manual assay,induces robust M3-AChR-activated mobilisation of [Ca^2+]i; also recorded: increasing [Ca^2+]i
same,peak minus baseline carbachol-activated M3-AChR-induced increase in [Ca2+]i,[2]; manual method,~ 290 nM
same,EC50,"[2]; read-out: EC50, carbachol-activated M3-AChR-induced [Ca2+]i, manual method",~5 µM
same,"carbachol-induced calcium signal, esterase cleavage buffer CLB-HG vs HBSS, CLB-LG","[3]; 10^-3, 10^-4 and 10^-5 M, two independent experiments",consistently induced higher calcium signal in the presence of CLB-HG compared with HBSS or CLB-LG
same,"carbachol-induced calcium signal, loading temperature RT vs 37°C","[3]; 10^-4, 10^-5 and 10^-6 M, DMEM, two independent experiments",consistently induced higher calcium signal when Fura-2/AM loading was performed at RT compared with 37 °C
same,"carbachol-induced calcium signal, esterase cleavage temperature 37°C vs RT","[3]; 10^-4, 10^-5 and 10^-6 M, two independent experiments","consistently induced higher calcium signal when Fura-2/AM esterase cleavage was performed at 37°C, compared with RT"
same,carbachol-stimulated calcium signal with 1 mM probenecid vs 2.5 mM,"[3]; 10^-4 M, Fig. S6, three independent experiments",no blunting of carbachol-stimulated calcium signal with 1 mM probenecid
same,carbachol-induced calcium signal with vs without probenecid,"[3]; 10^-4 M, probenecid 2.5 mM, three independent experiments",consistently induced higher calcium signal when probenecid was included both in Fura-2/AM loading buffer (DMEM) and Fura-2/AM esterase cleavage buffer (CLB-HG)
same,carbachol-induced calcium signal with vs without pluronic acid,"[3]; 10^-4 M, three independent experiments",consistently induced higher calcium signal when Fura-2/AM loading was conducted in the presence of pluronic acid compared with no pluronic acid
same,"carbachol-induced calcium signal, loading time 15 to 75 min","[3]; 10^-4 and 10^-5 M, RT, DMEM, three independent experiments",consistently induced higher calcium signal when Fura-2/AM loading was conducted at RT for 60 min compared with other incubation times
same,"carbachol-induced calcium signal, Fura-2/AM loading buffer DMEM vs CLB-HG","[3]; 10^-4 and 10^-5 M, two independent experiments",consistently induced higher calcium signal with DMEM compared with CLB-HG
same,"carbachol-induced calcium signal, esterase cleavage time 10 to 120 min","[3]; 10^-5 M, CLB-HG, 37°C, three independent experiments",consistently induced higher calcium signal when cells were incubated for 80 min compared with other times

# Entries after “also recorded” stand apart in the source; their conditions may differ.
